# US7674816B2, “Substituted melatonin derivatives, process for their preparation, and methods of use” (Abraxis BioScience, LLC, priority 2003, dated 2010)
# Tested on: rats
# Experiment: In vivo hypnotic activity: time to recovery of righting reflex after tail vein injection
# Details: 28 μmol/kg (5 mg/kg for propofol), in DMSO
# Description: The suspension was centrifuged at 1000×g for 10 minutes at 4° C. The pellet was washed twice in assay buffer and reacted with radioactive ligand in presence or absence of […] at 10^−4 M final concentration. The amount of radioactivity remained on the Whatman filter following filtration of the reaction mix and two washes with assay buffer was determined using a liquid scintillation counter. Inhibition of radioactive ligand binding by melatonin represents the competitive binding of melatonin to the same site as the radioactive ligand. GABAA Cl channel were assayed using ^3H-TBOB. The binding was carried out in the presence of increasing concentration of melatonin and the KD determined graphically using the Hill plots. In vivo hypnotic activity was determined as follow. Drugs solubilized in DMSO were administered to rats by tail vein injection (N=5 rats per group). A dose level of 28 μmol/kg (5 mg/kg for propofol) was used to compensate for differences in molecular weight of the analogs. Anesthetic activity in vivo was determined as time to recovery of righting reflex following administration of the compounds.
structure (smiles),measurement,value
COc1ccc2[nH]c(-c3ccccc3)c(CCNC(C)=O)c2c1 [drawing 18],"Anesthesia Activity (Time to awakening, min)",2.5 min
